We go through nine compounds from patent US9018383B2, “Acylamino-substituted cyclic carboxylic acid derivatives and their use as pharmaceuticals” (Sanofi, priority 2009, dated 2015).

Sequences of proteins named here, by UniProt entry; tags and fusion partners are left off.
UniProt Q92633, whole entry: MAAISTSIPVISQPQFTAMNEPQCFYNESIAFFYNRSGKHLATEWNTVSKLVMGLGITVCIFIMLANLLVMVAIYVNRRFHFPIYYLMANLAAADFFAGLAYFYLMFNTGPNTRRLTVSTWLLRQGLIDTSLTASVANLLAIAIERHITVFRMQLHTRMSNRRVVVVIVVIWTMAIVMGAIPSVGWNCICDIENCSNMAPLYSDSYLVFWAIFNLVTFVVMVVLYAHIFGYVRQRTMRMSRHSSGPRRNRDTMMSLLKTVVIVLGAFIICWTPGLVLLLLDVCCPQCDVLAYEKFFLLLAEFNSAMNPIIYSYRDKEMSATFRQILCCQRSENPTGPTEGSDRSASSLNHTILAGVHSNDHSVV

The target of the assay is human Edg-2 receptor (Homo sapiens, UniProt Q92633). Briefly: Determination of Edg-2 receptor inhibition by FLIPR measurements (LPA-mediated calcium liberation). The conditions noted are these: read-out: Inhibitory concentrations IC50 for inhibition of the Edg-2 receptor; CHO cells overexpressing human Edg-2 receptor, LPA 100 nM, fluo-4 calcium fluorescence. How it is done:
A) Determination of Edg-2 Receptor Inhibition by Fluorescence Imaging Plate Reader (FLIPR) Measurements
The inhibition of the Edg-2 receptor (LPA1 receptor) by the compounds of the invention was quantified by the inhibitory effect on the LPA-mediated calcium liberation in a cell-based calcium fluorescence assay by use of Chinese hamster ovarian (CHO) cells in which the human Edg-2 receptor was stably overexpressed (Flp-In system, Invitrogen). […] Changes in intracellular calcium were determined by fluorescence measurement with the calcium-sensitive dye fluo-4 (Invitrogen) in a fluorescence imaging plate reader (FLIPR, […]).
CHO cells stably overexpressing the human Edg-2 receptor were seeded (40.000 per well) in black clear-bottomed poly-D-lysine-coated 96 well plates (Becton Dickinson, Biocoat cellware) approximately 18-24 h prior to the experiments. Cells were grown in an incubator at 37° C., 5% carbon dioxide and 95% humidity in cell culture media based on F-12 glutamax media (Gibco, #31765) supplemented with 1% (vol/vol) penicilline/streptomycine (PAN, #P06-07100), 10% (vol/vol) fetal calf serum (FCS, PAA, #A15-151) and hygromycin B (Invitrogen, #10687-010) 300 mg/l (final concentrations).
Prior to the FLIPR experiment, cells were loaded with fluo-4 acetoxymethyl ester (fluo-4 AM, Invitrogen, #F14202) for 60 min in an incubator at 37° C., 5% carbon dioxide and 95% humidity in dye-loading buffer consisting of Hanks' Balanced Salt Solution (HBSS, Invitrogen, #14065049) supplemented with fluo-4 AM at 2 μM (all data given for final concentration), Pluronic® F-127 0.05% (vol/vol) (Invitrogen, #P-3000 MP), HEPES 20 mM (Gibco, #15630), probenecid 2.5 mM (Sigma, #P-8761) and bovine serum albumin 0.05% (BSA, Sigma, #A-6003), adjusted to pH 7.5 with sodium hydroxide. During cell loading, fluo-4 AM is cleaved by intracellular esterase resulting in trapping of the dye fluo-4 within the cells. Loading was terminated by washing of the cells in a cell washer (Tecan Power washer) three times with the buffer specified afore but without fluo-4 AM and BSA. This latter buffer was also used as the buffer in the subsequent cell fluorescence measurements.
The dye-loaded and washed cells were pre-incubated for approximately 5 min with various concentrations of the test compound added as a solution in DMSO (0.3% vol/vol maximum final concentration of DMSO), or with DMSO in the respective concentration only (positive control). Subsequent addition of LPA (18:1, 1-oleoyl-sn-glycerol 3-phosphate; 100 nM final concentration) leads to liberation of intracellular calcium from internal stores resulting in a large transient increase of the fluo-4 fluorescence signal which was monitored over approximately 3 min. The percent inhibition caused by the test compound was determined from the maximum fluorescence response after LPA addition to cells pre-incubated with the compound as compared to the maximum fluorescence response after LPA addition to cells pre-incubated with DMSO only. All fluorescence values were corrected for the baseline fluorescence values obtained with cells which were pre-incubated with DMSO only and were not treated with LPA (baseline control). All measurements were performed in triplicate. From the percent inhibitions the inhibitory concentration IC50 was determined.

In the case of `COc1ccc(C(=O)NC2(C(=O)O)CCCCCC2)cc1-c1cccc(Cl)c1`, the IC50 fell in the range of 100 to 1000 nM. The result for `CCC1CCC(NC(=O)c2ccc(OCCO)c(-c3ccc(F)c(F)c3)c2)(C(=O)O)CC1` (stereo not drawn) reads below 100 nM; that for `CCC1CCC(NC(=O)c2ccc(OCCO)c(-c3cccc(C(F)(F)F)c3)c2)(C(=O)O)CC1` (stereo not drawn), below 100 nM; that for `CCC1CCC(NC(=O)c2ccc(OCCO)c(-c3cccc(OC(F)(F)F)c3)c2)(C(=O)O)CC1` (stereo not drawn), below 100 nM. The result for `COc1ccc(C(=O)NC2(C(=O)O)CCC(C)CC2)cc1OCCc1cccc(C)c1` (stereo not drawn) reads below 100 nM; that for `CCC1CCC(NC(=O)c2ccc(OCCO)c(-c3cc(F)cc(F)c3)c2)(C(=O)O)CC1` (stereo not drawn), below 100 nM; that for `CCC1CCC(NC(=O)c2ccc(OCCO)c(-c3ccc(OC)c(Cl)c3)c2)(C(=O)O)CC1` (stereo not drawn), below 100 nM. The same measure for `CC[C@H]1CC[C@@](NC(=O)c2cnc(OC)c(-c3ccc(OC)c(Cl)c3)c2)(C(=O)O)CC1`: below 100 nM; for `CC[C@H]1CC[C@](NC(=O)c2cc(F)c(OCCO)c(-c3cccc(C(F)(F)F)c3)c2)(C(=O)O)CC1`: below 100 nM.
